Values quoted from earlier work as cited in patent publication US6544976B1, “Neurotrophic 2-azetidinecarboxylic acid derivatives, and related compositions and methods” (Ortho-McNeil Pharmaceutical, Inc., priority 1999, dated 2003).

System: ALS patients
Conditions: cited from earlier work

With `Nc1nc2ccc(OC(F)(F)F)cc2s1` [Riluzole] as the compound, how does the “rate of survival of ALS patients” value read?
Its value is “increase the rate of survival”.
